Data published in PubChem BioAssay AID1509 (The Scripps Research Institute Molecular Screening Center, 2009).
The entries are a selection whose mix differs from that of the whole data set. Activity calls are given as the source filed them. Rule as the data show it: active = activation above about 11%; inactive = the rest.

Sequences of proteins named here, by UniProt entry; tags and fusion partners are left off. A change or cut given only in a name is not applied to a line headed by its entry.
UniProt O95977: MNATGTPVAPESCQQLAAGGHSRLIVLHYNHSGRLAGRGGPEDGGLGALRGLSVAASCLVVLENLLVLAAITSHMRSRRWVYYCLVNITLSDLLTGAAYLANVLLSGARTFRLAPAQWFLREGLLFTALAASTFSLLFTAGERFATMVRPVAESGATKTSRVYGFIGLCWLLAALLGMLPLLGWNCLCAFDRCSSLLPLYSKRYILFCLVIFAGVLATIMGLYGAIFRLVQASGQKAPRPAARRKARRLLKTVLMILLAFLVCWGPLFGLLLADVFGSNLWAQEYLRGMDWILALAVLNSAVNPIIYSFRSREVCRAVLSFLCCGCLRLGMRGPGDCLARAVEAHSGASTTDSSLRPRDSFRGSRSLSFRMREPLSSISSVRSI

Biological target: Sphingosine 1-phosphate receptor 4 (Homo sapiens) (UniProt O95977)
Assay: activators of human S1P4 receptor – cell-based, primary screen (AID 1509);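 also: 0% = DMSO vehicle and 100% = reference agonist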
Conditions: S1P4-expressing cell line, agonist reporter assay; at 4.98 µM; active compounds read high

SMILES | activation
O=P(Nc1nc2ccc(Cl)cc2s1)(c1ccccc1)c1ccccc1 | inactive: 1.36%
CC(C)CC(=O)NC(Sc1ccc(Cl)cc1)C(Cl)(Cl)Cl (configuration not stated) | inactive: -0.3%
Nc1cc(N)c2nonc2c1[N+](=O)[O-] | inactive: 0.34%
Cc1c2non([O-])c-2c(C)[n+](=O)[n+]1[O-] | inactive: 0.59%
O=C(NC(Sc1ccncn1)C(Cl)(Cl)Cl)c1ccccc1 (configuration not stated) | inactive: -0.26%
Oc1ccccc1CNc1ccccn1 | inactive: -0.02%
Cc1ccc(OP(=O)(Nc2nccs2)Oc2ccc(C)cc2)cc1 | inactive: -1.18%
COc1ccccc1OP(=O)(Nc1ccc(C)cn1)Oc1ccccc1OC | inactive: -1.44%
Clc1ccc(Cl)c(NC2=NCC(CBr)S2)c1 (configuration not stated) | inactive: 4.63%
CN1CCCC(OC(=O)C(c2ccccc2)c2ccccc2)C1 (configuration not stated) | inactive: -1.47%
NC(=O)c1cc([N+](=O)[O-])cc([N+](=O)[O-])c1N | inactive: 0.5%
Cc1ccc(N/C(=N/P(=O)(N2CCOCC2)N2CCOCC2)N2CCOCC2)cc1 | inactive: 0.11%
CN(C)C(=O)OCCc1n(C)cc[n+]1C | inactive: 1.52%
CC(C)=N/N=C(\N)N[N+](=O)[O-] | inactive: -0.35%
CC1CCN(C(=O)Oc2c(Cl)cc(Cl)c3cccnc23)CC1 | inactive: 0.38%
C[N+]1=C2C=CC=CC=C2SC12C([N+](=O)[O-])=CC([N+](=O)[O-])=C[C-]2[N+](=O)[O-] (configuration not stated) | inactive: -0.74%
Nc1ccc([As](=O)(O)c2ccc(N)cc2)cc1 | inactive: 0.51%
CCN(/C(=N/P(=O)(N1CCOCC1)N1CCOCC1)N1CCOCC1)c1ccc(OC)cc1 | inactive: -0.76%
O=[N+]([O-])c1cccc2n[nH]nc12 | inactive: 0.14%

SMILES | activation
CC(=O)N1C2C3N(C(C)=O)C1C1N(C(C)=O)C(C(N1C(C)=O)N3C(C)=O)N2C(C)=O | inactive: -1.14%
CCc1nc2c(n1)c1c(non1O)c1c2no[n+]1[O-] | inactive: -1.64%
O=[N+]([O-])c1cc([N+](=O)[O-])c(CCNc2ccccc2)c([N+](=O)[O-])c1 | inactive: 0.88%
Cc1ccc(NP(=O)(Oc2ccccc2)Oc2ccccc2)nc1 | inactive: 0.84%
COc1ccc(C2=NCC(CBr)S2)cc1 (configuration not stated) | inactive: -0.79%
O=[N+]([O-])c1cccc(NC2=NCC(CBr)S2)c1 (configuration not stated) | inactive: 0.03%
O=C(O)CNc1ccc([As](=O)(O)O)cc1 | inactive: -1.41%
CC(C)(C)C(=O)NC(Sc1ccncn1)C(Cl)(Cl)Cl (configuration not stated) | inactive: -1.6%
O=[N+]([O-])c1ncn(CCn2ncnc2[N+](=O)[O-])n1 | inactive: 1.45%
O=C(Nc1cc([As](=O)(O)O)ccc1O)c1ccccc1 | inactive: 1.51%
Nc1ccc([As](=O)(O)c2ccc([N+](=O)[O-])cc2)cc1 | inactive: -0.53%
C(Cc1nn[nH]n1)Cc1nn[nH]n1 | inactive: 0.58%
O=C(OC1CN2CCC1CC2)c1cccc(Cl)c1 (configuration not stated) | inactive: 0.33%
O=[N+]([O-])c1ncn(CCn2cnc([N+](=O)[O-])n2)n1 | inactive: -0.26%
CC(=O)NC(SC(=S)N(C)C)C(Cl)(Cl)Cl (configuration not stated) | inactive: 3.18%
O=[As](O)(c1ccccc1)c1ccc(O)cc1 | inactive: 1.64%
O=P(Nc1nc2ccccc2s1)(c1ccccc1)c1ccccc1 | inactive: -0.6%
O=P(Nc1ccccn1)(c1ccc(Br)cc1)c1ccc(Br)cc1 | inactive: -0.28%
c1nnnn1CCn1cnnn1 | inactive: -0.7%

SMILES | activation
CC(C)C(=O)NC(Sc1ccccc1)C(Cl)(Cl)Cl (configuration not stated) | inactive: 3.29%
O=P(Nc1nccs1)(c1ccccc1)c1ccccc1 | inactive: -1.15%
CC(=O)Nc1ccc(Oc2c([N+](=O)[O-])cc([N+](=O)[O-])cc2[N+](=O)[O-])cc1 | inactive: 0.14%
CC(=O)Nc1ccc([As](=O)(O)O)c(O)c1 | inactive: 0.44%
CC(C)(C)C(=O)NC(Sc1ccccc1)C(Cl)(Cl)Cl (configuration not stated) | inactive: -0.01%
CCOc1ccc(C2=NCC(CBr)S2)cc1 (configuration not stated) | inactive: -0.34%
O=P1(Nc2nc3ccc(Cl)cc3s2)COc2ccccc2O1 (configuration not stated) | inactive: -0.23%
CN(C)C(=O)Oc1noc2ccccc12 | inactive: -1.84%
O=c1c2cc([N+](=O)[O-])ccc2[nH]c2c([N+](=O)[O-])cc([N+](=O)[O-])cc12 | inactive: -0.43%
Cc1ccccc1OP(=O)(Nc1ccccn1)Oc1ccccc1C | inactive: -1.24%
Cc1ccc(OP(=O)(Nc2ccccn2)Oc2ccc(C)cc2)cc1 | inactive: -0.88%
CC(=O)NC(SC(=S)N(CC(C)C)CC(C)C)C(Cl)(Cl)Cl (configuration not stated) | inactive: -1.6%
COC(=O)c1cc2c(s1)N=C(c1ccccc1)N(C)P2(=O)N1CCOCC1 (configuration not stated) | inactive: -0.62%
CCC(=O)N1C2C3N(C(=O)CC)C1C1N(C(=O)CC)C(C(N1C(=O)CC)N3C(=O)CC)N2C(=O)CC | inactive: 1.98%
CCNC(=S)/N=C(\N)N[N+](=O)[O-] | inactive: -1.06%
O=C(NC1CCS(=O)(=O)C1)NP(=S)(Oc1ccccc1)Oc1ccccc1 (configuration not stated) | inactive: 0.91%
CCOC(=O)NC(Sc1ccccc1)C(Cl)(Cl)Cl (configuration not stated) | inactive: 1.79%
Cc1ccc(NP(=O)(Oc2cccc(C)c2)Oc2cccc(C)c2)nc1 | inactive: -0.55%
c1ccc(-c2nn[nH]n2)c(-c2nn[nH]n2)c1 | inactive: 0.34%
